Five compounds from PubChem BioAssay AID624319 (Sanford-Burnham Center for Chemical Genomics, 2012) can be followed below.

Amino acid sequences for entries named in this document (tags omitted).
UniProt Q96LD8, whole entry: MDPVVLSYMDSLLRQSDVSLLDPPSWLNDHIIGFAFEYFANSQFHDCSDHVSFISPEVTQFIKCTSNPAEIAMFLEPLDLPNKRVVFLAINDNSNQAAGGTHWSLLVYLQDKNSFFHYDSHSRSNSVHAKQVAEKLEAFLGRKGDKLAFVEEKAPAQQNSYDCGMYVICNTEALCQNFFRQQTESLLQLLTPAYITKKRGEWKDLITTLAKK

Only a part is listed here, and it is no random draw. Activity calls are given as the source filed them. Rule as the data show it: active = inhibition mostly above about 39% (no sharp cut-off); inactive = mostly below about 34%.

The experiment has as its target Sentrin-specific protease 8 (Homo sapiens) (UniProt Q96LD8). As to the kind of experiment: human SENP8 protease inhibitors, confirmation, biochemical, Nedd8 protein substrate, single concentration (AID 624319). Conditions: purified SENP8, Nedd8-AMC/pro-Nedd8 cleavage fluorescence, 30 min; at 25 µM; hits give high values.
As for `CN(C)C(=O)c1c([N+](=O)[O-])cc([N+](=O)[O-])cc1[N+](=O)[O-]`, the inhibition was active: 69.4%.

In the case of `O=[N+]([O-])c1cc([N+](=O)[O-])c(Nc2ccccn2)c([N+](=O)[O-])c1`, the inhibition was active: 58.6%.

With `O=[N+]([O-])c1cc([N+](=O)[O-])c(Nc2cccnc2)c([N+](=O)[O-])c1`, the inhibition is inactive: 37.9%.

As to `CCc1ccc(OP(C)(=O)N2CCN(c3ccc([N+](=O)[O-])cc3)CC2)cc1` (stereo not given), the inhibition was inactive: 14.7%.

Consider `Cc1ccc(Nc2c([N+](=O)[O-])cc([N+](=O)[O-])cc2[N+](=O)[O-])cc1`, for which the inhibition was inactive: 39.6%.

Broadly, the inhibition is how much of the control response was suppressed.
